# Laboratory results taken from PubChem BioAssay AID602244 (Sanford-Burnham Center for Chemical Genomics, 2012).
# Sequences of proteins named here, by UniProt entry; tags and fusion partners are left off.
# UniProt O00574, whole entry: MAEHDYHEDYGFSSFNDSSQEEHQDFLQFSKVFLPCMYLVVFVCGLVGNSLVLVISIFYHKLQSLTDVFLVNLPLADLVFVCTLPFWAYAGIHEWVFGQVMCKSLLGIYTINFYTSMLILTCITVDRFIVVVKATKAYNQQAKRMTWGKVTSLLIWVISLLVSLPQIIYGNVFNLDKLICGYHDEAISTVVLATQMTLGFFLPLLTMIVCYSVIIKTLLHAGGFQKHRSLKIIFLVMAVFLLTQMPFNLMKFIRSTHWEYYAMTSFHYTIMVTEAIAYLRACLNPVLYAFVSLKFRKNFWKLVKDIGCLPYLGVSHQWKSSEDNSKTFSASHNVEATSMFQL
# Only a part is listed here, and it is no random draw. Calls of active or inactive are those of the source. Cut-off read from the data, not from the text of the source: active = inhibition above about 34% (passing the limit was not always enough); inactive = the rest.
# Biological target: C-X-C chemokine receptor type 6 (Homo sapiens) (UniProt O00574)
# Experiment: CXCR6 receptor inhibitors, primary screen, cell-based, beta-arrestin, luminescence, CHO-K1 PathHunter, 1536-well (AID 602244);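 note: antagonist mode with CXCL16 agonist at 10 nM final; 0% = 10 nM CXCL16 with DMSO and 100% = unstimulated wells without agonist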
# Settings: at 20 µM, active compounds read high
row,SMILES,inhibition
1,Cc1cccc(NC2(C#N)CCN(Cc3ccccc3)CC2)c1,inactive: -2.6%
2,CSc1ccccc1C(=O)NCC1(N2CCCCC2)CCCCC1,inactive: 11.8%
3,CCC(c1nnnn1C1CCCC1)N1CCC(n2c(=O)[nH]c3ccccc32)CC1 (stereo not drawn),inactive: 4.8%
4,COc1ccc(C(=O)NCC2(N3CCCCC3)CCCCC2)c(OC)c1OC,inactive: 3.3%
5,CC(C)(C)OC(=O)N1CCC(N(C(=O)c2ccccc2)c2ccc(F)cc2)CC1,inactive: 8%
6,COc1ccc(C(=O)NCC2(N3CCCCC3)CCCCC2)cc1,inactive: 6.2%
7,CCCCn1nnnc1C(c1cccs1)N1CCC(n2c(=O)[nH]c3ccccc32)CC1 (stereo not drawn),inactive: 16.7%
8,CCCCn1nnnc1C(CC)N1CCC(n2c(=O)[nH]c3ccccc32)CC1 (stereo not drawn),inactive: -1.6%
9,O=C(NCC1(N2CCCCC2)CCCCC1)c1cccs1,inactive: 7.5%
10,O=C(NCC1(N2CCCCC2)CCCCC1)c1ccc(=O)[nH]c1,inactive: -4.4%
11,COc1ccc(Cl)cc1C(=O)NCC1(N2CCOCC2)CCCCC1,inactive: -3.1%
12,O=C(OC1CN2CCC1CC2)C1c2ccccc2Oc2ccccc21 (stereo not drawn),inactive: 17.3%
13,O=c1[nH]c2ccccc2n1C1CCN(C(c2cc3ccccc3o2)c2nnnn2C2CCCCC2)CC1 (stereo not drawn),inactive: -6.7%
14,N#CC1(Nc2ccccc2)CCN(Cc2ccccc2)CC1,inactive: 13%
15,O=C(NCC1(N2CCCCC2)CCCCC1)c1ccc(Cl)s1,inactive: 7.5%
16,CCCCn1nnnc1C(c1ccc(OC)cc1)N1CCC(n2c(=O)[nH]c3ccccc32)CC1 (stereo not drawn),inactive: 1%
17,CCOC(=O)N1CCC(Nc2ccc(OC)cc2)CC1,inactive: 3.8%
18,Cc1cc(C)cc(N(C(=O)c2ccccc2)C2CCN(C(=O)OC(C)(C)C)CC2)c1,inactive: 0.9%
19,O=c1[nH]c2ccccc2n1C1CCN(C(c2ccccc2OC(F)(F)F)c2nnnn2C2CCCCC2)CC1 (stereo not drawn),inactive: 6.1%
20,O=C(NCC1(N2CCCCC2)CCCCC1)c1ccc(Cl)nc1,inactive: 1.7%
21,O=C(NCC1(N2CCOCC2)CCCCC1)c1cc2ccccc2o1,inactive: -31.3%
22,COc1ccc(NC2CCN(CCc3ccccc3)CC2)c(OC)c1,inactive: -1.6%

row,SMILES,inhibition
1,CCOC(=O)N1CCC(Nc2ccc(F)cc2)CC1,inactive: -3.8%
2,O=C(NCC1(N2CCCCC2)CCCCC1)c1ccc(F)cc1,inactive: 2.4%
3,O=P1(N(CCCl)CCCl)SCCCS1,inactive: -0.2%
4,CCCCn1nnnc1C(c1cc2ccccc2o1)N1CCC(n2c(=O)[nH]c3ccccc32)CC1 (stereo not drawn),inactive: 7.9%
5,CCCCOc1ccc(C(=O)NCC2(N3CCOCC3)CCCCC2)cc1,inactive: 12.2%
6,O=C1CCN(Cc2ccccc2)CC1,inactive: 9.8%
7,CC(C)(C)n1nnnc1C(c1ccccc1)N1CCC(n2c(=O)[nH]c3ccccc32)CC1 (stereo not drawn),inactive: 1.6%
8,CCOc1ccc(C)cc1CN(CCCl)CCCl,inactive: 7%
9,COc1cc(C(=O)NCC2(N(C)C)CCCCC2)ccc1OC(F)F,inactive: -5.1%
10,CCOC(=O)N1CCC(Nc2cccc(C)c2)CC1,inactive: 8.3%
11,O=c1[nH]c2ccccc2n1C1CCN(C(c2cccc3ccccc23)c2nnnn2C2CCCC2)CC1 (stereo not drawn),inactive: 10.7%
12,O=c1[nH]c2ccccc2n1C1CCN(C(c2ccccc2)c2nnnn2C2CCCCC2)CC1 (stereo not drawn),inactive: 4%
13,N#CC1(Nc2ccccc2)CCN(CCc2ccccc2)CC1,inactive: 3.2%
14,O=c1[nH]c2ccccc2n1C1CCN(C(c2ccccc2OC(F)(F)F)c2nnnn2C2CCCC2)CC1 (stereo not drawn),inactive: 8.3%
15,CCN1CCC(Nc2ccc(Cl)cc2)CC1,inactive: 3.4%
16,CSc1ccc(C(=O)NCC2(N3CCOCC3)CCCCC2)cc1,inactive: -0.3%
17,O=C(NCC1(N2CCCCC2)CCCCC1)c1cccc([N+](=O)[O-])c1,inactive: -2.4%
18,O=C(NCC1(N2CCCCC2)CCCCC1)c1ccc(OC(F)F)cc1,inactive: 11%
19,CC(C)(C)n1nnnc1C(c1ccccc1OC(F)(F)F)N1CCC(n2c(=O)[nH]c3ccccc32)CC1 (stereo not drawn),inactive: 11.7%
20,COc1cc(C(=O)NCC2(N3CCCCC3)CCCCC2)ccc1OC(F)F,inactive: 11%
21,O=C(NCC1(N2CCOCC2)CCCCC1)c1cc(=O)[nH]c2ccccc12,inactive: -3.5%
22,CCCCn1nnnc1C(c1cccc2ccccc12)N1CCC(n2c(=O)[nH]c3ccccc32)CC1 (stereo not drawn),inactive: 6.8%

row,SMILES,inhibition
1,CN1CCN(CCOC(=O)C(O)(c2ccccc2)c2ccccc2)CC1,inactive: -3.2%
2,COc1ccc(NC2CCN(C(=O)OC(C)(C)C)CC2)cc1,inactive: -3.6%
3,CC(C)c1ccc(C(=O)NCC2(N3CCOCC3)CCCCC2)cc1,inactive: 0.6%
4,O=C(NCC1(N2CCCCC2)CCCCC1)c1cccc(C(F)(F)F)c1,inactive: 3.9%
5,CCC(c1nnnn1C(C)(C)C)N1CCC(n2c(=O)[nH]c3ccccc32)CC1 (stereo not drawn),inactive: -1.8%
6,O=C(NCC1(N2CCOCC2)CCCCC1)c1cc(F)c(F)cc1Cl,inactive: 7.4%
7,COc1cc(OC)c(C(=O)NCC2(N(C)C)CCCCC2)cc1OC,inactive: -4.8%
8,CCCCn1nnnc1C(c1ccnc2ccccc12)N1CCC(n2c(=O)[nH]c3ccccc32)CC1 (stereo not drawn),inactive: -2%
9,CC(C)c1ccc(NC2CCN(C(=O)OC(C)(C)C)CC2)cc1,inactive: -3.2%
10,CCCCn1nnnc1C(c1ccccc1OC(F)(F)F)N1CCC(n2c(=O)[nH]c3ccccc32)CC1 (stereo not drawn),inactive: 12.3%
11,CN(C)c1cccc(C(=O)NCC2(N3CCCCC3)CCCCC2)c1,inactive: 9.7%
12,COc1ccc(CN(CCCl)CCCl)cc1Cl,inactive: -1.2%
13,COc1ccc(C(c2nnnn2C2CCCC2)N2CCC(n3c(=O)[nH]c4ccccc43)CC2)cc1 (stereo not drawn),inactive: 1.5%
14,CCCOc1ccc(C(=O)NCC2(N(C)C)CCCCC2)cc1OC,inactive: -6.7%
15,Cc1ccc(C(=O)NCC2(N(C)C)CCCCC2)o1,inactive: 3.6%
16,O=C(NCC1(N2CCCCC2)CCCCC1)c1cncc(Br)c1,inactive: 3.3%
17,CN1CCC(Nc2cccc(F)c2)CC1,inactive: -5.6%
18,O=c1[nH]c2ccccc2n1C1CCN(C(c2cccs2)c2nnnn2C2CCCCC2)CC1 (stereo not drawn),inactive: 1.1%
19,O=c1[nH]c2ccccc2n1C1CCN(C(c2ccnc3ccccc23)c2nnnn2C2CCCC2)CC1 (stereo not drawn),inactive: -1.2%
20,COc1ccc(C(=O)NCC2(N3CCOCC3)CCCCC2)cc1OC,inactive: 6.2%
21,COc1cc(C(=O)NCC2(N3CCOCC3)CCCCC2)cc(OC)c1C,inactive: 2.6%
22,CCCCn1nnnc1C(c1ccccc1)N1CCC(n2c(=O)[nH]c3ccccc32)CC1 (stereo not drawn),inactive: -2.3%

row,SMILES,inhibition
1,O=C(NCC1(N2CCOCC2)CCCCC1)c1cc(Br)ccc1Cl,inactive: 1%
2,O=c1[nH]c2ccccc2n1C1CCN(C(c2cccs2)c2nnnn2C2CCCC2)CC1 (stereo not drawn),inactive: 1.9%
3,O=C(OC1CN2CCC1CC2)C1c2ccccc2C=Cc2ccccc21 (stereo not drawn),inactive: 7.9%
4,CCCCn1nnnc1C(c1cccc(OC)c1OC)N1CCC(n2c(=O)[nH]c3ccccc32)CC1 (stereo not drawn),inactive: 3.8%
5,COc1cccc(C(c2nnnn2C(C)(C)C)N2CCC(n3c(=O)[nH]c4ccccc43)CC2)c1OC (stereo not drawn),inactive: -3.1%
6,CCOC(=O)N1CCC(Nc2ccc(C)cc2)CC1,inactive: -3.3%
7,N/C(=N\O)c1c(N)no[n+]1[O-],inactive: -15.2%
8,N#Cc1ccc(C(=O)NCC2(N3CCCCC3)CCCCC2)cc1,inactive: 11.7%
9,CC(C)(C)OC(=O)N1CCC(N(C(=O)c2ccccc2)c2ccc(Cl)cc2)CC1,inactive: 15.3%
10,CC(C)(C)n1nnnc1C(c1cccc2ccccc12)N1CCC(n2c(=O)[nH]c3ccccc32)CC1 (stereo not drawn),inactive: 4%
11,CN(C)C1(CNC(=O)c2cccc(C#N)c2)CCCCC1,inactive: 1.2%
12,CCCN1CCC(Nc2cc(OC)cc(OC)c2)CC1,inactive: -17.8%
13,O=c1[nH]c2ccccc2n1C1CCN(C(c2ccccc2)c2nnnn2C2CCCC2)CC1 (stereo not drawn),inactive: -1.5%
14,Cc1cc(N(CCCl)CCCl)ccc1C=O,inactive: -13%
15,c1ccc(CN2CCC(Nc3ccccc3)CC2)cc1,inactive: 1.9%
16,Fc1ccccc1NC1CCN(Cc2ccccc2)CC1,inactive: 4%
17,Cc1ccc(C(=O)NCC2(N3CCCCC3)CCCCC2)o1,inactive: -2.5%
18,Cc1ccc(NC2(C#N)CCN(Cc3ccccc3)CC2)cc1,inactive: -4.1%
19,CCC(c1nnnn1C1CCCCC1)N1CCC(n2c(=O)[nH]c3ccccc32)CC1 (stereo not drawn),inactive: 5.3%
20,CC(=O)N(c1ccccc1)C1CCNCC1,inactive: 1.5%
21,COc1cccc(C(c2nnnn2C2CCCCC2)N2CCC(n3c(=O)[nH]c4ccccc43)CC2)c1OC (stereo not drawn),inactive: 9.2%
22,O=c1[nH]c2ccccc2n1C1CCN(C(c2ccnc3ccccc23)c2nnnn2C2CCCCC2)CC1 (stereo not drawn),inactive: 9.8%

row,SMILES,inhibition
1,COc1cc(OC)cc(C(=O)NCC2(N3CCCCC3)CCCCC2)c1,inactive: 11.4%
2,Cn1c(=O)[nH]cc(N(CCCl)CCCl)c1=O,inactive: -0.2%
3,CN(C)c1ccc(C(=O)NCC2(N3CCCCC3)CCCCC2)cc1,inactive: 1.3%
4,O=C(NCC1(N2CCCCC2)CCCCC1)c1ccco1,inactive: 0.2%
5,CC(C)(C)n1nnnc1C(c1ccnc2ccccc12)N1CCC(n2c(=O)[nH]c3ccccc32)CC1 (stereo not drawn),inactive: 1.5%
6,COc1ccc(C(c2nnnn2C2CCCCC2)N2CCC(n3c(=O)[nH]c4ccccc43)CC2)cc1 (stereo not drawn),inactive: -5%
7,CCN1CCC(Nc2cccc(F)c2)CC1,inactive: 3.3%
8,Cc1ccccc1NC1(C#N)CCN(Cc2ccccc2)CC1,inactive: -5.5%
9,O=C(O)C1(Nc2ccccc2)CCN(Cc2ccccc2)CC1,inactive: 4.1%
10,NN(c1ccccc1)C1CCN(CCc2ccccc2)CC1,inactive: -2.8%
11,CC(C)(C)OC(=O)N1CCC(Nc2ccccc2)CC1,inactive: 5.6%
12,CCCOc1ccc(C(=O)NCC2(N(C)C)CCCCC2)cc1,inactive: 2.9%
13,O=c1[nH]c2ccccc2n1C1CCN(C(c2cc3ccccc3o2)c2nnnn2C2CCCC2)CC1 (stereo not drawn),inactive: 0%
14,CN1CCC(Nc2ccc(F)c(Cl)c2)CC1,inactive: 0.1%
15,CCOc1ncccc1C(=O)NCC1(N2CCOCC2)CCCCC1,inactive: 1.8%
16,CN1CCC(Nc2ccc(Cl)cc2)CC1,inactive: 0.5%
17,COc1cccc(C(c2nnnn2C2CCCC2)N2CCC(n3c(=O)[nH]c4ccccc43)CC2)c1OC (stereo not drawn),inactive: 5.7%
18,COc1cc(OC)cc(C(=O)NCC2(N3CCOCC3)CCCCC2)c1,inactive: 2.9%
19,COc1cccc(C(=O)N(c2cc(C)cc(C)c2)C2CCN(C(=O)OC(C)(C)C)CC2)c1,inactive: 9.5%
20,CCC(CO)(C(=O)OC1CN2CCC1CC2)c1ccccc1 (stereo not drawn),inactive: -3.9%
